System: CD4+ and CD8+ T cell populations
Experiment: Mouse vaccination with OVA and adjuvant: intracellular cytokine staining of antigen-specific T cells
Conditions: for CD8+ T cell responses for any cytokine or its combinations: mice vaccinated as adults (prime + 2 boosts); for effect of a neonatal dose on multiple cytokine producers: neonatal dose given versus skipped

Compound	frequency of triple cytokine producers (IFN-γ, TNF-α and IL-2) among CD8+ T cells (administered at neonatal age)	CD8+ T cell responses for any cytokine or its combinations	frequency of triple, double and single cytokine producers (neonatal dose compared with group where neonatal dose was skipped)	effect of a neonatal dose on multiple cytokine producers	stimulation of multifunctional T cells (neonatal priming versus priming at a later age)	vaccination potency by sub-cutaneous route (sub-cutaneous vaccination, versus alum salts)	frequency of multifunctional T cells expressing IFN-γ, TNF-α and IL-2 (i.n. vaccination with OVA, neonatal prime + 2 boosts)	CD4+ T cells that produce any combination of IFN-γ, TNF-α, IL-17 and IL-2 (neonatal dose compared to neonatal dose skipped or adult controls)	multifunctional CD8+ T cells (neonatal priming compared to neonatal dose skipped)
Nc1ncnc2c1ncn2[C@@H]1O[C@@H]2COP(=O)(O)O[C@H]3[C@@H](O)[C@H](n4cnc5c(N)ncnc54)O[C@@H]3COP(=O)(O)O[C@H]2[C@H]1O [CDA, cyclic bis(3′-5′)diadenylic acid]	increased	responses were stronger	increased	beneficial effects	better stimulation	superiority to alum salts			
CCOCc1nc2c(N)nc3ccccc3c2n1CC(C)(C)O [R848, reference compound]		responses were stronger		negative effects			did not significantly increase	reduced	reduced

From patent US20220257752A1, “NEW USE OF CYCLIC DINUCLEOTIDES” (priority 2019, published 2022)
